Measurements from patent US9440982B2 (Eolas Therapeutics, Inc., priority 2012, dated 2016).

The chains behind the UniProt entries cited, without tags or fusion partners.
UniProt O43614, whole entry: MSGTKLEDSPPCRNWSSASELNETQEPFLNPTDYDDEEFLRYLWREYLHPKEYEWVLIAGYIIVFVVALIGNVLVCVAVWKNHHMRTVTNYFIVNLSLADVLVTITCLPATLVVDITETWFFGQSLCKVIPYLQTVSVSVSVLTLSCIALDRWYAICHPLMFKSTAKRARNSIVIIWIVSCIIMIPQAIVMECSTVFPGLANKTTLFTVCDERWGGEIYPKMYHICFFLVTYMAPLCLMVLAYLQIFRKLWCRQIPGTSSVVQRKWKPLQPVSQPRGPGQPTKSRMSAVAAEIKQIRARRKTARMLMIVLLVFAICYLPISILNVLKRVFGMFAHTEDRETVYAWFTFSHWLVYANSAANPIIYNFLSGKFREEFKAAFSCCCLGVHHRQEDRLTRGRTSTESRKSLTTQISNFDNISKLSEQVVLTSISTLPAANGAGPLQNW

Target: T1, OX2 (Homo sapiens, UniProt O43614)
T1 construct: expressed in transfected cells; host or cells: CHO (CHO-OX2, kept under selection antibiotic)
Assay: Orexin receptor cell-based functional assay, [Ca2+]i by FLIPR, CHO-OX2 cells
Conditions: CHO-OX2 cells, [Ca2+]i by FLIPR, antagonist dose-range 0.1 nM-10 μM, EC90 of OXA; read-out: OX2

Row | SMILES | IC50
1 | C[C@@H]1CCCN(C(=O)c2cc(F)ccc2-c2ncccn2)[C@@H]1CNc1ncc(C(F)(F)F)cn1 [Example A227, (5-Fluoro-2-(pyrimidin-2-yl)phenyl)((2S,3R)-3-methyl-2-(((5-(trifluoromethyl)pyrimidin-2-yl)amino)methyl)piperidin-1-yl)methanone] | > 5 µM
2 | C[C@@H]1CCCN(C(=O)c2cc(F)ccc2-c2ncccn2)[C@@H]1CNc1ccc(C(F)(F)F)cn1 [Example A228, (5-Fluoro-2-(pyrimidin-2-yl)phenyl)((2S,3R)-3-methyl-2-(((5-(trifluoromethyl)pyridin-2-yl)amino)methyl)piperidin-1-yl)methanone] | > 5 µM
3 | C[C@@H]1CCCN(C(=O)c2cc(F)ccc2-c2ncccn2)[C@@H]1CNc1ccc(Cl)cn1 [Example A229, ((2S,3R)-2-(((5-Chloropyridin-2-yl)amino)methyl)-3-methylpiperidin-1-yl)(5-fluoro-2-(pyrimidin-2-yl)phenyl)methanone] | > 5 µM
4 | C[C@@H]1CCCN(C(=O)c2cccc(F)c2-c2ncccn2)[C@@H]1CNc1ncc(C(F)(F)F)cn1 [Example A230, (3-Fluoro-2-(pyrimidin-2-yl)phenyl)((2S,3R)-3-methyl-2-(((5-(trifluoromethyl)pyrimidin-2-yl)amino)methyl)piperidin-1-yl)methanone] | > 5 µM
5 | C[C@@H]1CCCN(C(=O)c2cccc(F)c2-c2ncccn2)[C@@H]1CNc1ncc(Cl)cn1 [Example A231, (3-Fluoro-2-(pyrimidin-2-yl)phenyl)((2S,3R)-3-methyl-2-(((5-chloropyrimidin-2-yl)amino)methyl)piperidin-1-yl)methanone] | > 5 µM
6 | C[C@@H]1CCCN(C(=O)c2cccc(F)c2-c2ncccn2)[C@@H]1CNc1ccc(Cl)cn1 [Example A232, ((2S,3R)-2-(((5-chloropyridin-2-yl)amino)methyl)-3-methylpiperidin-1-yl)(3-fluoro-2-(pyrimidin-2-yl)phenyl)methanone] | > 5 µM
7 | C[C@@H]1CCCN(C(=O)c2c(F)cccc2-c2ncccn2)[C@@H]1CNc1ncc(Cl)cn1 [Example A239, ((2S,3R)-2-(((5-Chloropyrimidin-2-yl)amino)methyl)-3-methylpiperidin-1-yl)(2-fluoro-6-(pyrimidin-2-yl)phenyl)methanone] | > 5 µM
8 | C[C@@H]1CCCN(C(=O)c2c(F)cccc2-c2ncccn2)[C@@H]1CNc1ncc(C(F)(F)F)cn1 [Example A240, (2-Fluoro-6-(pyrimidin-2-yl)phenyl)((2S,3R)-3-methyl-2-(((5-(trifluoromethyl)pyrimidin-2-yl)amino)methyl)piperidin-1-yl)methanone] | > 5 µM
9 | C[C@@H]1CCCN(C(=O)c2c(F)cccc2-c2ncccn2)[C@@H]1CNc1ccc(C(F)(F)F)cn1 [Example A241, (2-Fluoro-6-(pyrimidin-2-yl)phenyl)((2S,3R)-3-methyl-2-(((5-(trifluoromethyl)pyridin-2-yl)amino)methyl)piperidin-1-yl)methanone] | > 5 µM
10 | C[C@@H]1CCCN(C(=O)c2cc(F)c(F)cc2-c2ncccn2)[C@@H]1CNc1ccc(C(F)(F)F)cn1 [Example A242, (4,5-Difluoro-2-(pyrimidin-2-yl)phenyl)((2S,3R)-3-methyl-2-(((5-(trifluoromethyl)pyridin-2-yl)amino)methyl)piperidin-1-yl)methanone] | > 5 µM
11 | C[C@@H]1CCCN(C(=O)c2cc(F)c(F)cc2-c2ncccn2)[C@@H]1CNc1ncc(C(F)(F)F)cn1 [Example A243, (4,5-Difluoro-2-(pyrimidin-2-yl)phenyl)((2S,3R)-3-methyl-2-(((5-(trifluoromethyl)pyrimidin-2-yl)amino)methyl)piperidin-1-yl)methanone] | > 5 µM
12 | C[C@@H]1CCCN(C(=O)c2cc(F)c(F)cc2-c2ncccn2)[C@@H]1CNc1ncc(Cl)cn1 [Example A244, ((2S,3R)-2-(((5-Chloropyrimidin-2-yl)amino)methyl)-3-methylpiperidin-1-yl) (4,5-difluoro-2-(pyrimidin-2-yl)phenyl)methanone] | > 5 µM
13 | C[C@@H]1CCCN(C(=O)c2cc(F)c(F)cc2-n2nccn2)[C@@H]1CNc1ccc(Cl)cn1 [Example A246, ((2S,3R)-2-(((5-Chloropyridin-2-yl)amino)methyl)-3-methylpiperidin-1-yl)(4,5-difluoro-2-(2H-1,2,3-triazol-2-yl)phenyl)methanone] | > 5 µM
14 | C[C@@H]1CCCN(C(=O)c2cc(F)c(F)cc2-n2nccn2)[C@@H]1CNc1ncc(Cl)cn1 [Example A247, ((2S,3R)-2-(((5-Chloropyrimidin-2-yl)amino)methyl)-3-methylpiperidin-1-yl)(4,5-difluoro-2-(2H-1,2,3-triazol-2-yl)phenyl)methanone] | > 5 µM
15 | C[C@@H]1CCCN(C(=O)c2cc(F)c(F)cc2-n2nccn2)[C@@H]1CNc1ncc(C(F)(F)F)cn1 [Example A248, (4,5-Difluoro-2-(2H-1,2,3-triazol-2-yl)phenyl)((2S,3R)-3-methyl-2-(((5-(trifluoromethyl)pyrimidin-2-yl)amino)methyl)piperidin-1-yl)methanone] | > 5 µM
16 | C[C@@H]1CCCN(C(=O)c2cc(F)c(F)cc2-n2nccn2)[C@@H]1CNc1ccc(C(F)(F)F)cn1 [Example A249, (4,5-Difluoro-2-(2H-1,2,3-triazol-2-yl)phenyl)((2S,3R)-3-methyl-2-(((5-(trifluoromethyl)pyridin-2-yl)amino)methyl)piperidin-1-yl)methanone] | > 5 µM
17 | C[C@@H]1CCCN(C(=O)c2ccc(F)cc2-n2nccn2)[C@@H]1CNc1ccc(C(F)(F)F)cn1 [Example A250, (4-Fluoro-2-(2H-1,2,3-triazol-2-yl)phenyl)((2S,3R)-3-methyl-2-(((5-(trifluoromethyl)pyridin-2-yl)amino)methyl)piperidin-1-yl)methanone] | > 5 µM

Further lines, results first:

Row | IC50 | SMILES
18 | > 5 µM | Cc1ccc(-n2nccn2)c(C(=O)N2CCC(F)(F)C[C@H]2CNc2ncc(C(F)(F)F)cn2)c1 [Example A211, (S)-(4,4-Difluoro-2-(((5-(trifluoromethyl)pyrimidin-2-yl)amino)methyl)piperidin-1-yl)(5-methyl-2-(2H-1,2,3-triazol-2-yl)phenyl)methanone]
19 | 3.3 µM | Cc1ccc(-c2ncccn2)c(C(=O)N2CCC[C@@H](C)[C@H]2CNc2ncc(C(F)(F)F)cn2)c1 [Example A212, ((2S,3R)-3-Methyl-2-(((5-(trifluoromethyl)pyrimidin-2-yl)amino)methyl)piperidin-1-yl)(5-methyl-2-(pyrimidin-2-yl)phenyl)methanone]
20 | 1.3 µM | Cc1ccc(-n2nccn2)c(C(=O)N2CCC[C@@H](C)[C@H]2CNc2ncc3ccc(C)cc3n2)c1 [Example A215, ((2S,3R)-3-Methyl-2-(((7-methylquinazolin-2-yl)amino)methyl)piperidin-1-yl)(5-methyl-2-(2H-1,2,3-triazol-2-yl)phenyl)methanone]
21 | > 5 µM | Cc1ccc(-c2ccccn2)c(C(=O)N2CCC[C@@H](C)[C@H]2CNc2ccc(C(F)(F)F)cn2)n1 [Example A217, ((2S,3R)-3-Methyl-2-(((5-(trifluoromethyl)pyridin-2-yl)amino)methyl)piperidin-1-yl)(6′-methyl-[2,3′-bipyridin]-2′-yl)methanone]
22 | > 5 µM | C[C@@H]1CCCN(C(=O)c2ccccc2-n2nccn2)[C@@H]1CNc1nc2ccccc2o1 [Example A218, (2-(2H-1,2,3-Triazol-2-yl)phenyl)((2S,3R)-2-((benzo[d]oxazol-2-ylamino)methyl)-3-methylpiperidin-1-yl)methanone]
23 | > 5 µM | C[C@@H]1CCCN(C(=O)c2ccccc2-n2nccn2)[C@@H]1CNc1nc2cc(Cl)ccc2o1 [Example A219, (2-(2H-1,2,3-Triazol-2-yl)phenyl)((2S,3R)-2-(((5-chlorobenzo[d]oxazol-2-yl)amino)methyl)-3-methylpiperidin-1-yl)methanone]
24 | 2.5 µM | Cc1ccc(-n2nccn2)c(C(=O)N2CCC[C@@H](C)[C@H]2CNc2ncc3cc(C)ccc3n2)c1 [Example A220, ((2S,3R)-3-Methyl-2-(((6-methylquinazolin-2-yl)amino)methyl)piperidin-1-yl)(5-methyl-2-(2H-1,2,3-triazol-2-yl)phenyl)methanone]
25 | > 5 µM | C[C@@H]1CCCN(C(=O)c2cc(F)ccc2-n2nccn2)[C@@H]1CNc1ncc(Cl)cn1 [Example A221, ((2S,3R)-2-(((5-Chloropyrimidin-2-yl)amino)methyl)-3-methylpiperidin-1-yl)(5-fluoro-2-(2H-1,2,3-triazol-2-yl)phenyl)methanone]
26 | > 5 µM | Cc1ccc(-c2cccnc2)c(C(=O)N2CCC[C@@H](C)[C@H]2CNc2ncc(Cl)cn2)n1 [Example A222, ((2S,3R)-2-(((5-Chloropyrimidin-2-yl)amino)methyl)-3-methylpiperidin-1-yl)(6-methyl-[3,3′-bipyridin]-2-yl)methanone]
27 | > 5 µM | Cc1ccc(-c2cccnc2)c(C(=O)N2CCC[C@@H](C)[C@H]2CNc2ncc(C(F)(F)F)cn2)n1 [Example A223, ((2S,3R)-3-Methyl-2-(((5-(trifluoromethyl)pyrimidin-2-yl)amino)methyl)piperidin-1-yl)(6-methyl-[3,3′-bipyridin]-2-yl)methanone]
28 | > 5 µM | Cc1ccc(-c2cccnc2)c(C(=O)N2CCC[C@@H](C)[C@H]2CNc2ccc(Cl)cn2)n1 [Example A224]
29 | > 5 µM | C[C@@H]1CCCN(C(=O)c2nccc3ccccc23)[C@@H]1CNc1ncc(Cl)cn1 [Example A225, ((2S,3R)-2-(((5-Chloropyrimidin-2-yl)amino)methyl)-3-methylpiperidin-1-yl)(isoquinolin-1-yl)methanone]
30 | > 5 µM | C[C@@H]1CCCN(C(=O)c2cc(F)ccc2-c2ncccn2)[C@@H]1CNc1ncc(Cl)cn1 [Example A226, ((2S,3R)-2-(((5-Chloropyrimidin-2-yl)amino)methyl)-3-methylpiperidin-1-yl)(5-fluoro-2-(pyrimidin-2-yl)phenyl) methanone]
31 | 0.81 µM | C[C@@H]1CCCN(C(=O)c2cccc(F)c2-c2ncccn2)[C@@H]1CNc1ccc(C(F)(F)F)cn1 [Example A233, (3-Fluoro-2-(pyrimidin-2-yl)phenyl)((2S,3R)-3-methyl-2-(((5-(trifluoromethyl)pyridin-2-yl)amino)methyl)piperidin-1-yl)methanone]
